Among the data in US9682983B2, “BMP inhibitors and methods of use thereof” (THE BRIGHAM AND WOMEN'S HOSPITAL, INC., priority 2013, dated 2017) are IC50 values, retold here.

Protein sequences, listed by entry. Tags and fused reporters are not part of them. Residues count along the entry.
UniProt Q04771, 21-509: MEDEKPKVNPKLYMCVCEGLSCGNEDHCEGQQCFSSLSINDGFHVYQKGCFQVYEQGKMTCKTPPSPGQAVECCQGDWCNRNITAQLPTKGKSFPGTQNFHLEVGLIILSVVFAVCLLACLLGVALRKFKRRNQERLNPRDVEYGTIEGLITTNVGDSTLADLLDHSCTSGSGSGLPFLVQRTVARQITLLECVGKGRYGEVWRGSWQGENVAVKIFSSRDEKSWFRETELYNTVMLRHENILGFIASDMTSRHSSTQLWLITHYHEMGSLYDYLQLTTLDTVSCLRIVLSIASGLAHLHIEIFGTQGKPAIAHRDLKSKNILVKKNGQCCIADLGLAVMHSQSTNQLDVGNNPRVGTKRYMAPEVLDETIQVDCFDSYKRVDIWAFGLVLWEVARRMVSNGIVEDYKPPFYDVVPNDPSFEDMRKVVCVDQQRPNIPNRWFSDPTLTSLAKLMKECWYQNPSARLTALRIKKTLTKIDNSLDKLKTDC

The target in the assay is human ALK2 (Homo sapiens (Human), UniProt Q04771). In words: LANCE Ultra ULight enzymatic assay (FOP Enzymatic Assay), ALK2. The assay is classed as biochemical. The following applies: 10 μM ATP.

By IC50 is commonly meant the concentration that inhibits the measured activity by half. Low readings indicate greater potency in that assay, high ones weaker potency in that assay.

Take `[2H]c1ccc2c(-c3cnn4cc(-c5ccc(OCCN6CCN(C)CC6)cn5)cnc34)cccc2n1` [Compound 51, 5-(6-(5-(2-(4-methylpiperazin-1-yl)ethoxy)pyridin-2-yl)pyrazolo[1,5-a]pyrimidin-3-yl)-2-^2H-quinoline]: the midpoint of inhibition, the IC50, lay at 0.151 µM.
